The results in this text go back to patent US9612237B2, “Ritalinic acid immunoassay” (Randox Laboratories Limited, priority 2013, dated 2017).

The experiment concerns antisera generated in response to immunogen of Example 11. In words: Competitive chemiluminescent biochip immunoassay, antisera raised against immunogen of Example 11, conjugate of Example 12. The note with it: value is the concentration at which no cross-reactivity was exhibited. Format: binding, sheep.

Each structure is given as a SMILES string. Some compounds may have been tested in ways that are not shown here.

Turning to `CCC(=O)N(c1ccccc1)C1CCN(CCc2ccccc2)CC1`, the “Concentration exhibiting no cross-reactivity” value turned out to be 10 µg/mL.
